The values that follow are results of earlier work, collected in patent US5202319A, “Substituted 3-amino-2,3,4,5-tetrahydro-1-aryloxy-3-benzazepines” (Hoechst-Roussel Pharmaceuticals Inc., priority 1991, dated 1993).

Structures are written as SMILES.

The subject of the data set is 5HT uptake. As to conditions: cited from earlier work.

For `O=c1n(CCCN2CCN(c3cccc(Cl)c3)CC2)nc2ccccn12` [Trazodone], the “effects on 5HT uptake” value is “fairly selective effects on 5HT uptake”.
For `CNCCC(Oc1ccc(C(F)(F)F)cc1)c1ccccc1` (centres unmarked) [Fluoxetine], the “effects on 5HT uptake” value was “both a selective and potent 5HT uptake inhibitor”.
